Assay results from patent US6579900B2, “Anandamide amidase inhibitors as analgesic agents” (priority 1996, dated 2003).

Sequences of proteins named here, by UniProt entry; tags and fusion partners are left off.
UniProt P20272, whole entry: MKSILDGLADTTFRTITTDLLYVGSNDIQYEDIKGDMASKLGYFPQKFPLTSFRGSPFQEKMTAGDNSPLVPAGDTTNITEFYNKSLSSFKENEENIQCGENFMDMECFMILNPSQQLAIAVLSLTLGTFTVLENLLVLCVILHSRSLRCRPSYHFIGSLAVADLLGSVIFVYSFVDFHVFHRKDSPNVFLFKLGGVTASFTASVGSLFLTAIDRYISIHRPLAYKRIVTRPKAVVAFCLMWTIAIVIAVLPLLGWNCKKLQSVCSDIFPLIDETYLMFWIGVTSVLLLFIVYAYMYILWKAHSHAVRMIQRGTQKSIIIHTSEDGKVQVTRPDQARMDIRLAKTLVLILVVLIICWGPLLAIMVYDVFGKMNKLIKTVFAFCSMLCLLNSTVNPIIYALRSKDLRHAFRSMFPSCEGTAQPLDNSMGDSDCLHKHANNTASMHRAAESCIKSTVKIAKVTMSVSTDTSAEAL

Biological target: T1, CB1 receptor (Rattus norvegicus, UniProt P20272)
T1 construct: brain membranes were prepared from frozen rat brains; from tissue; host or cells: membranes from frozen rat brains
Type: binding

Structure (SMILES): CCCCCCCCCCCCCCCCS(=O)(=O)F [palmitylsulfonyl fluoride]
- binding affinity for the CB1 receptor relative to anandamide: about 10 times lower
- efficiency of binding to CB1 receptor relative to arachidonoyl ethanolamide (FIG. 3): less than 10%
